{"source": "PubChem BioAssay AID463", "about": "(The Scripps Research Institute Molecular Screening Center, 2006)", "note": "The entries are a selection whose mix differs from that of the whole data set. Calls of active or inactive are those of the source.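 The calls were made as follows: active = inhibition above the mean inhibition of all tested compounds plus 3 SD (cut at about 28% in these data); inactive = the rest.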"}
{"test": "cytotoxicity toward Jurkat T cells, primary screen, cytotoxicity control, cell-based, Jurkat E6.1, 60K MLSMR library (AID 463)", "settings": "Jurkat E6.1 viability, ATP luminescence, 48 h; at 4 µM; active compounds read high"}
{"compound": "Cc1c2non([O-])c-2c(C)[n+](=O)[n+]1[O-]", "inhibition": "inactive: 7.9%"}
{"compound": "CCc1nc2c(n1)c1c(non1O)c1c2no[n+]1[O-]", "inhibition": "active: 66.8%"}
{"compound": "O=C(OC1CN2CCC1CC2)c1cccc(Cl)c1", "note": "(configuration not stated)", "inhibition": "inactive: 7.8%"}
{"compound": "c1nnnn1CCn1cnnn1", "inhibition": "inactive: -5.9%"}
{"compound": "O=P(Nc1nccs1)(c1ccccc1)c1ccccc1", "inhibition": "inactive: 7.1%"}
{"compound": "O=P1(Nc2nc3ccc(Cl)cc3s2)COc2ccccc2O1", "note": "(configuration not stated)", "inhibition": "inactive: -1.9%"}
{"compound": "CCOP1(=S)c2c(C)nn(CCC#N)c2N=C(c2ccccc2F)N1C", "note": "(configuration not stated)", "inhibition": "inactive: -2.5%"}
{"compound": "O=P(Nc1nccs1)(c1ccccc1)c1nc2ccccc2s1", "note": "(configuration not stated)", "inhibition": "inactive: 1.8%"}
{"compound": "CCOP1(=S)c2c(C)nn(CCC#N)c2N=C(c2ccc(F)cc2)N1C", "note": "(configuration not stated)", "inhibition": "inactive: -0.7%"}
{"compound": "Clc1n[nH]nc1-c1nn[nH][15n]1", "inhibition": "inactive: -5.7%"}
{"compound": "O=P1(Nc2ccccn2)COc2ccccc2OC1", "inhibition": "inactive: -9.8%"}
{"compound": "Cc1nn(-c2ccccc2)c2c1P(=O)(N1CCOCC1)N(C)C(c1ccccc1)=N2", "note": "(configuration not stated)", "inhibition": "inactive: -9.8%"}
{"compound": "O=P1(Nc2ccc(Br)cn2)COc2ccccc2OC1", "inhibition": "inactive: -0.7%"}
{"compound": "O=P1(Nc2ncccn2)COc2ccccc2OC1", "inhibition": "inactive: -5.4%"}
{"compound": "O=C(COc1ccccc1)OC1CN2CCC1CC2", "note": "(configuration not stated)", "inhibition": "inactive: 2.1%"}
{"compound": "COP1(=S)c2c(C)nn(CCC#N)c2N=C(c2ccc(F)cc2)N1C", "note": "(configuration not stated)", "inhibition": "inactive: 6.5%"}
{"compound": "O=C(OC1CN2CCC1CC2)C12CC3CC(CC(C3)C1)C2", "note": "(configuration not stated)", "inhibition": "inactive: 3%"}
